{"source": "PubChem BioAssay AID1885", "about": "(Broad Institute, 2009)", "note": "This is a selection; strong and weak results do not stand in their true shares. The source made the active and inactive calls.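 The calls were made as follows: active = mean inhibition across valid replicates above about 55% (limit read from the data); inconclusive = mean below that limit but half or more replicates reach it; inactive = mean below it, under half of replicates reach it.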"}
{"assay": "inhibitors of intracellular T. cruzi growth, primary screen, luminescence, NIH3T3 host cells (AID 1885);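 also: signal also drops with host cell toxicity which is not excluded here; 0% = plate median of DMSO wells and 100% = zero luminescence signal; higher percent means less beta-gal luminescence so fewer parasites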", "conditions": "T. cruzi beta-gal in NIH3T3, luminescence, 90 h; active compounds read high; concentration not given here", "summary_of_the_method": "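Assay system: NIH/3T3 host cells with β-galactosidase reporter T. cruzi; input: 5,000 host fibroblasts per well; compound: single 50 nL compound addition per well in DMSO; timing: ≥90 h infection period, 3 h prior cell attachment; measured by: GalScreen β-gal luminescence, detergent lysis, 60 min; evaluation: percent inhibition of parasite-derived β-gal signal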"}
{"smiles": "CN(CCCl)Cc1cc(Cl)c(NC2=NCCN2)c(Cl)c1", "inhibition": "inactive: -33.7%"}
{"smiles": "CC(C)/C=N\\N=C(\\N)N[N+](=O)[O-]", "inhibition": "inactive: 7.41%"}
{"smiles": "CN(C(=O)Cc1ccc(Cl)c(Cl)c1)[C@@H]1CCCC[C@H]1N1CCCC1", "inhibition": "inactive: 30.7%"}
{"smiles": "O=[As](O)(c1ccccc1Br)c1ccccc1Br", "inhibition": "inactive: -9.31%"}
{"smiles": "CC1(CBr)Cn2c(nc3ccccc3c2=O)S1", "note": "(configuration not stated)", "inhibition": "inactive: -17.4%"}
{"smiles": "O=[N+]([O-])c1cc([N+](=O)[O-])c(-c2cnn(-c3ccccc3)c2)c([N+](=O)[O-])c1", "inhibition": "active: 57.4%"}
{"smiles": "COc1ccccc1CNC(=O)COC(=O)C(O)(c1ccccc1)c1ccccc1", "inhibition": "inactive: -8.22%"}
{"smiles": "Cc1cccc(OCC(=O)OC2CN3CCC2CC3)c1", "note": "(configuration not stated)", "inhibition": "inactive: -50.7%"}
{"smiles": "O=[As](O)(c1cccc(O)c1)c1cccc(O)c1", "inhibition": "inactive: -6.91%"}
{"smiles": "Cc1cc(C)cc(OP(C)(=O)Nc2ccc(C)cc2C)c1", "note": "(configuration not stated)", "inhibition": "inactive: 6.82%"}
{"smiles": "CCOC(=O)c1ccc(NP(C)(=O)Oc2cc(C)cc(C)c2)cc1", "note": "(configuration not stated)", "inhibition": "inactive: 14.4%"}
{"smiles": "O=C(OC1CN2CCC1CC2)c1ccc(Cl)cc1", "note": "(configuration not stated)", "inhibition": "inactive: 14.3%"}
{"smiles": "O=[As](O)(O)c1cccnc1", "inhibition": "inactive: -17.2%"}
{"smiles": "COc1cc(C(=O)NCC2(N3CCOCC3)CCCCC2)cc(Cl)c1OC(C)C", "inhibition": "inactive: 23.8%"}
{"smiles": "COc1ccccc1OP(C)(=O)Nc1cccc(Br)c1", "note": "(configuration not stated)", "inhibition": "inactive: 9.75%"}
{"smiles": "CS(=O)(=O)c1ccc(Cl)c(NC(=O)COC(=O)C(O)(c2ccccc2)c2ccccc2)c1", "inhibition": "inactive: 0.452%"}
{"smiles": "CCOP(=O)(Nc1cccc2ccccc12)OCC", "inhibition": "inactive: -15.9%"}
{"smiles": "Cc1cc(C)cc(OP(C)(=O)Nc2ccccn2)c1", "note": "(configuration not stated)", "inhibition": "inactive: -12.8%"}
{"smiles": "CP(=O)(Nc1cccc(Br)c1)Oc1ccccc1", "note": "(configuration not stated)", "inhibition": "inactive: -9.11%"}
{"smiles": "Nc1cccc2c([As](=O)(O)O)cccc12", "inhibition": "inactive: 1.52%"}
{"smiles": "Cc1ccc(C)c(NP(C)(=O)Oc2ccccc2)c1", "note": "(configuration not stated)", "inhibition": "inactive: -0.545%"}
{"smiles": "CCCOP(=S)(Nc1nc(N)cc(=O)[nH]1)OCCC", "inhibition": "inactive: 3.65%"}
{"smiles": "Nc1ccccc1[As](=O)(O)c1ccccc1", "inhibition": "inactive: 5.77%"}
{"smiles": "O=C(O)COc1ccc([As](=O)(O)O)cc1[N+](=O)[O-]", "inhibition": "inactive: 3.18%"}
{"smiles": "CCOP1(=S)c2c(C)nn(CCC#N)c2N=C(c2ccccc2F)N1C", "note": "(configuration not stated)", "inhibition": "inactive: 8.19%"}
{"smiles": "O=C(O)c1cccc(Nc2c([N+](=O)[O-])cc([N+](=O)[O-])cc2[N+](=O)[O-])c1", "inhibition": "inactive: 4.03%"}
{"smiles": "O=P(Nc1nccs1)(Oc1ccccc1)Oc1ccccc1", "inhibition": "inactive: -10.2%"}
{"smiles": "O=P(Nc1nccs1)(c1ccccc1)c1nc2ccccc2s1", "note": "(configuration not stated)", "inhibition": "inactive: 19.8%"}
{"smiles": "CS(=O)(=O)c1cc([N+](=O)[O-])c2no[n+]([O-])c2c1", "inhibition": "inactive: -10%"}
{"smiles": "N#CCCN(C(=O)COC(=O)C(O)(c1ccccc1)c1ccccc1)c1ccc(F)cc1", "inhibition": "inactive: 8.45%"}
{"smiles": "CN(C(=O)Cc1ccccc1)[C@@H]1CC[C@]2(CCCO2)C[C@H]1N1CCCC1", "inhibition": "inactive: -4.38%"}
{"smiles": "CCOP1(=S)c2c(C)nn(CCC#N)c2N=C(c2ccc(F)cc2)N1C", "note": "(configuration not stated)", "inhibition": "inactive: 3.28%"}
{"smiles": "O=[N+]([O-])c1ccc2c(c1)nnn2O", "inhibition": "inactive: -16.9%"}
{"smiles": "CN(C)C(=O)c1cc([N+](=O)[O-])cc2c1-c1c(cc([N+](=O)[O-])cc1[N+](=O)[O-])C2=O", "inhibition": "inactive: 47.2%"}
{"smiles": "CC1=NCCc2c1[nH]c1ccccc21.O=[N+]([O-])c1cc([N+](=O)[O-])c(O)c([N+](=O)[O-])c1", "inhibition": "inactive: -15%"}
{"smiles": "CN(C(=O)Cc1ccc(Cl)c(Cl)c1)[C@H]1CC[C@@]2(CCCO2)C[C@@H]1N1CCCC1", "inhibition": "inactive: 9.93%"}
{"smiles": "NC(=O)Nc1ccc([As](=O)(O)O)cc1", "inhibition": "inactive: -24%"}
